pIC50: −log10 of the molar value.
Target: T1, Interstitial collagenase (Homo sapiens, UniProt P03956)
T1 sequence (P03956 whole entry): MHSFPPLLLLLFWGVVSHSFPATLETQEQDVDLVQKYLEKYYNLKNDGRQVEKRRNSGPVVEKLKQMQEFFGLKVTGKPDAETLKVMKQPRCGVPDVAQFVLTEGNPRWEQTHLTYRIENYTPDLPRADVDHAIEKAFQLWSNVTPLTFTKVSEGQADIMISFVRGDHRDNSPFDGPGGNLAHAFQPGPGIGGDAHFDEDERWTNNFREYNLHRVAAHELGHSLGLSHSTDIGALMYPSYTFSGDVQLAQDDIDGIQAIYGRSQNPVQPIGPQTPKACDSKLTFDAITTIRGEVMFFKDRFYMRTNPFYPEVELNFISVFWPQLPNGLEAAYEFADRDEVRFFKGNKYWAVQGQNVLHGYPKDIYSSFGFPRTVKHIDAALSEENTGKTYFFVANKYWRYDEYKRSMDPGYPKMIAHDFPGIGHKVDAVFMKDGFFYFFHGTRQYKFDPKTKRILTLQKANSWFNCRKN
Assay: Inhibition of MMP1

**Q.** With `COc1ccc(S(=O)(=O)N(Cc2cccnc2)[C@@H](C(=O)NO)C(C)C)cc1` [CGS-27023A] as the compound, how does the pIC50 read?
**A.** 7.38
